In US20220213145A1 (Bicycle, published 2022):

T1: human CD137 protein (direct binding assay) (human, UniProt Q07011 24-186, limits assumed)
T1 construct: Soluble CD137 protein titrated from 3 uM in the fluorescence polarisation assay; also called hCD137; TNFRSF9
T1 sequence (looked up): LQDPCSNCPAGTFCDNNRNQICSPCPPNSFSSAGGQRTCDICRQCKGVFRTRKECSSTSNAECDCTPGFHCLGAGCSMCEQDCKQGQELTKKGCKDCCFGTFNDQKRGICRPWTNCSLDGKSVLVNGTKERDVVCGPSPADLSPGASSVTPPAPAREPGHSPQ

T2: human CD137 (AcroBiosystems) protein (human, UniProt Q07011 24-186)
T2 construct: also called hCD137
T2 sequence (looked up): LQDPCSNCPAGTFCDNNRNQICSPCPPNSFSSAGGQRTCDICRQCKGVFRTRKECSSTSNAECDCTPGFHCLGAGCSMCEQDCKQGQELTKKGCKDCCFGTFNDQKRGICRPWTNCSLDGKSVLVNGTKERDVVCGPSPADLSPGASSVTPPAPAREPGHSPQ

T3: Recombinant human CD137 homotrimer (R&D systems), biotinylated (human, UniProt Q07011 24-186, limits assumed, biotinylated with EZ-Link Sulfo-NHS-LC-LC-Biotin)
T3 construct: also called biotinylated CD137
T3 sequence (looked up): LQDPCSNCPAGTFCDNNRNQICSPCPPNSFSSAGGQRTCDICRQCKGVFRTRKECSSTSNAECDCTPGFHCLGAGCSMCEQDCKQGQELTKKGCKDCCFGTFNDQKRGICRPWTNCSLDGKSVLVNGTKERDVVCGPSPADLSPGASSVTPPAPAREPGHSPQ


Key:
[1] = target: T1, human CD137 protein (direct binding …); experiment: FP direct binding
[2] = target: T1, human CD137 protein (direct binding …); experiment: FP direct binding; remark: listed apart in the source
[3] = target: T1, human CD137 protein (direct binding …); experiment: FP direct binding; D-Ala at position 4 (D-Ala4 Nle12)
[4] = target: T2, human CD137 (AcroBiosystems) protein; experiment: SPR (Biacore), amine-coupled CD137
[5] = target: T3, Recombinant human CD137 homotrimer (R&D …); experiment: SPR (Biacore T200), biotinylated CD137 on streptavidin

Row | Binder | Kd [1] | further results
1 | ACLDPGPFCFADPYMCA (ACLDPGPFCFADPYMCA-Sar6-K; fluorescein-labelled; cyclised on TATA, also called (74-01-19-N002)-Sar6-K) [BCY7251] | 193 nM | 
2 | ACLEPGPYCYADPYMCTHL (ACLEPGPYCYADPYMCTHL-Sar6-K; fluorescein-labelled; cyclised on TATA, also called (74-20-00-T01)-Sar6-K) [BCY7120] | 160 nM | 
3 | ACIEEGQYCYADHQLCA (ACIEEGQYCYADHQLCA-Sar6-K; fluorescein-labelled; cyclised on TATA, also called (74-01-05)-Sar6-K) [BCY642] | 246 nM | 
4 | ACIEEXQYCFADPYXCA ([PEG3]-ACIEE-MeDala-QYCFADPY[Nle]CA; fluorescein-labelled; cyclised on TATA, also called [PEG3]-(74-01-04) N-Me-D-Ala4 Nle12) [BCY7172] |  | Kd [2]: 546 nM
5 | ACIEEXQYCFADPYXCA ([PEG3]-ACIEEaQYCFADPY(Nle)CA (a = D-Ala); fluorescein-labelled; cyclised on TATA, also called [PEG3]-(74-01-04) D-Ala4 Nle12; D-Ala4 peptide) [BCY7297] |  | Kd [3]: 25.2 nM
6 | CIKEGQYCFADPYMC (Ac-CIK(Peg12)EGQYCFADPYMC; fluorescein-labelled; cyclised on TATA, also called Ac-(74-01-04) Lys2(PEG12)) [BCY7239] | 579 nM | 
7 | ACLPPGPYCFPDPYFCA (ACLPPGPYCFPDPYFCA; cyclised on TATA, also called 74-22-03) [BCY631] |  | Kd [4]: 92.3 nM
8 | ACDEWGLFCIPHSDCA ([B-Ala]-Sar5-ACDEWGLFCIPHSDCA; fluorescein-labelled; cyclised on TATA, also called (B-Ala)-Sar5-(74-02-00)) [BCY657] | 3620 nM | 
9 | CIEKGQYCFADPYMC (Ac-CIEK(Peg12)GQYCFADPYMC; fluorescein-labelled; cyclised on TATA, also called Ac-(74-01-04)Lys3(PEG12)) [BCY7240] | 384 nM | 
10 | ACIEEGQYCFADPYMCA (ACIEEGQYCFADPYMCA; cyclised on TATA, also called 74-01-04; 74-01-04-N002) [BCY592] |  | Kd [4]: 70.9 nM; Kd [5]: 41.8 nM
11 | ACIEEGQYCFADPYLCA (ACIEEGQYCFADPYLCA; cyclised on TATA, also called 74-01-11) [BCY599] |  | Kd [4]: 191 nM
12 | ACIEEXQYCFADPYXCA ([PEG3]-ACIEE-Aib-QYCFADPY[Nle]CA; fluorescein-labelled; cyclised on TATA, also called [PEG3]-(74-01-04) Aib4 Nle12) [BCY7173] |  | Kd [2]: 414 nM
13 | ACIEEXQYCFADPYXCA ([PEG3]-ACIEE-Sar-QYCFADPY[Nle]CA; fluorescein-labelled; cyclised on TATA, also called [PEG3]-(74-01-04) Sar4 Nle12) [BCY7164] |  | Kd [2]: 326 nM
14 | CIEEGQYCFADPYMC ([Ac]CIEEGQYCFADPYMC; cyclised on TATA, also called Ac-(74-01-04)) [BCY593] |  | Kd [5]: 37 nM
15 | HEHCIEEGQYCYADPYMCA (HEHCIEEGQYCYADPYMCA; cyclised on TATA, also called 74-01-01-T01) [BCY589] |  | Kd [4]: 124 nM
16 | ACIEQGPFCFADPYMCA (ACIEQGPFCFADPYMCA-Sar6-K; fluorescein-labelled; cyclised on TATA, also called (74-01-22-N002)-Sar6-K) [BCY7257] | 109 nM | 
17 | ACLDEGPFCFSDPYMCA (ACLDEGPFCFSDPYMCA-Sar6-K; fluorescein-labelled; cyclised on TATA, also called (74-01-24-N002)-Sar6-K) [BCY7261] | 453 nM | 

Continued, in another order:

Row | Kd [1] | Binder | further results
18 | 105 nM | ACVEEGPFCFADPYYCA (ACVEEGPFCFADPYYCA-Sar6-K; fluorescein-labelled; cyclised on TATA, also called (74-01-23-N002)-Sar6-K) [BCY7259] | 
19 | 147 nM | ACLPPGPYCFPDPYFCA (ACLPPGPYCFPDPYFCA-Sar6-K; fluorescein-labelled; cyclised on TATA, also called (74-22-03-N004)-Sar6-K) [BCY7122] | 
20 | 48.3 nM | CIEEGKYCFADPYMC (Ac-CIEEGK(Peg12)YCFADPYMC; fluorescein-labelled; cyclised on TATA, also called Ac-(74-01-04)Lys5(PEG12)) [BCY7242] | 
21 | 744 nM | CIEEGQYCFADPKMC (Ac-CIEEGQYCFADPK(Peg12)MC; fluorescein-labelled; cyclised on TATA, also called Ac-(74-01-04)Lys11(PEG12)) [BCY7248] | 
22 | 392 nM | ACIEEGQYCYADPYLCSVG (ACIEEGQYCYADPYLCSVG-Sar6-K; fluorescein-labelled; cyclised on TATA, also called (74-01-09-T03)-Sar6-K(Fl)) [BCY647] | 
23 | 1040 nM | ACDEWGLYCFAHPDCA (ACDEWGLYCFAHPDCA-Sar6-K; fluorescein-labelled; cyclised on TATA, also called (74-02-01)-Sar6-K) [BCY659] | 
24 | 239 nM | CIEEGQYCFADKYMC (Ac-CIEEGQYCFADK(Peg12)YMC; fluorescein-labelled; cyclised on TATA, also called Ac-(74-01-04)Lys10(PEG12)) [BCY7247] | 
25 | 1380 nM | ACIEEGQYCYRDMYMCA ([Ac]ACIEEGQYCYRDMYMCA-Sar6-K(Fl); fluorescein-labelled; cyclised on TATA, also called Ac-(74-01-00)-Sar6-K(Fl)) [BCY634] | 
26 | 228 nM | ACIEEGQYCYADPYLCSVG ((Fl)G-Sar5-ACIEEGQYCYADPYLCSVG; fluorescein-labelled; cyclised on TATA, also called (B-Ala)-Sar5-(74-01-09-T03)) [BCY648] | 
27 | 144 nM | ACLDPGPYCYADPYMCTFH (ACLDPGPYCYADPYMCTFH-Sar6-K; fluorescein-labelled; cyclised on TATA, also called (74-13-00-T02)-Sar6-K) [BCY7119] | 
